Values of other authors as cited in US20070243132A1, “Transdermal delivery of pharmaceutical agents” (priority 2005, published 2007).

Conditions: microemulsion vs preparation with absorption enhancers oleic acid and d-limonene; cited from earlier work

O=C(O)Cc1ccccc1Nc1c(Cl)cccc1Cl [diclofenac]
efficiency of transdermal delivery: less efficient
